Tested on: cell growth
Assay: Comparison of cross-specific antibody to Cetuximab, MTT cell viability
Assay type: cell-based
Settings: MTT 72 hrs

With Cetuximab [C225] the “reduction in cell growth” value (antibody alone, concentration recommended for C225 (20 ug/ml and 40 ug/ml)) was “no significant effect” and the “reduction in cell growth in comparison to C225 and isotype control antibody” value (antibody in combination with cpt-11 5 μM) was “no effect”.

Source: patent US8846868B2, “Anti-AREG/HB-EGF antibodies and treatment” (Fusion Antibodies Limited, priority 2008, dated 2014)
